Experiments:
morphine-pelleted mice = experiment: Opioid withdrawal study in morphine-pelleted mice; assay type: in vivo, mouse; settings: s.c.; for paw tremoring: 25 at 5 mg/kg, 31 all doses
in vivo = settings: Swiss Webster, mouse, sc, 10 mg/kg

With `Cl.O=C(N[C@H]1CC[C@@]2(O)[C@H]3Cc4ccc(O)c5c4[C@@]2(CCN3CC2CC2)[C@H]1O5)c1cccs1` [Compound 25, 17-Cyclopropylmethyl-3, 14β-dihydroxy-4,5α-epoxy-6α-(2′-thienylcarboxamido)morphinan Hydrochloride] the “dose at which wet dog shakes and jumps started to show” value (morphine-pelleted mice) was 5 mg/kg, the paw tremoring (morphine-pelleted mice) was “noteworthy” and the concentration at 5 min (in vivo) was 4130 ng/mL.
For `Cl.O=C(N[C@@H]1CC[C@@]2(O)[C@H]3Cc4ccc(O)c5c4[C@@]2(CCN3CC2CC2)[C@H]1O5)c1cccs1` [Compound 26, 17-Cyclopropylmethyl-3,14β-dihydroxy-4,5α-epoxy-6β-(2′thienylcarboxamido)morphinan Hydrochloride], the “precipitation of withdrawal symptoms at high dose” value (morphine-pelleted mice; dose as high as 10 times that of NLX) was “did not precipitate significant withdrawal symptoms”.
For `Cl.O=C(N[C@H]1CC[C@@]2(O)[C@H]3Cc4ccc(O)c5c4[C@@]2(CCN3CC2CC2)[C@H]1O5)c1ccsc1` [Compound 31, 17-Cyclopropylmethyl-3,14β-dihydroxy-4,5α-epoxy-6α-(3′thienylcarboxamido)morphinan Hydrochloride], the “dose at which wet dog shakes and jumps started to show” value (morphine-pelleted mice) was 5 mg/kg and the paw tremoring (morphine-pelleted mice) was “remained mild through all doses”.

Reference: paper PMC10149103 (Journal of medicinal chemistry, 2022)
